We go through 53 molecules from PubChem BioAssay AID651965 (National Center for Advancing Translational Sciences (NCATS), 2013).

Amino acid sequences for entries named in this document (tags omitted).
UniProt P80244, whole entry: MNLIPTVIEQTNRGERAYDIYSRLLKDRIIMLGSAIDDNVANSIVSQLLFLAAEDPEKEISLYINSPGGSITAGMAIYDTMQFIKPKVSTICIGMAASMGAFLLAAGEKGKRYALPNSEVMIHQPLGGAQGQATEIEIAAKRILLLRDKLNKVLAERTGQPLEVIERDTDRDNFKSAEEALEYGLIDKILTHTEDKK

The entries are a selection whose mix differs from that of the whole data set. Records with an inconclusive call do not appear. Activity calls are given as the source filed them. The call rests on the fitted dose curve; in most records, active means well fitted falling curve with a large enough effect; inconclusive means small, poorly fitted or top-dose-only effect; inactive means no such curve, though single readings can be large or run the other way.
Potency means the concentration at half of the fitted maximal effect.

The assay has as its target ATP-dependent Clp protease proteolytic subunit (Bacillus subtilis (strain 168)) (UniProt P80244). The assay can be described thus: qHTS Assay for Activators of ClpP. Further: the source files actives as falling curves though it sought activators and does not explain the sign; nearly all actives have a fitted effect of over 65% in size. As to conditions: purified B. subtilis ClpP, FRET peptide cleavage, 20 min; series mostly up to 57.5 µM; activity change, negative = active: at the top concentration.
Take `CCCCOc1ccccc1C(=O)NCC1(N2CCOCC2)CCCCC1`: the “activity change, negative = active” value is inactive: -1.2%.

`O=C(NCC1(N2CCOCC2)CCCCC1)c1ccccc1Br`: the “activity change, negative = active” value was inactive: -0.416%.

With `CCCCn1nnnc1C(c1ccccc1)N1CCC(n2c(=O)[nH]c3ccccc32)CC1` (stereo not drawn), the “activity change, negative = active” value is inactive: 0.543%.

Turning to `COc1cc(C(=O)NCC2(N3CCOCC3)CCCCC2)cc(OC)c1C`, the “activity change, negative = active” value was inactive: -0.908%.

Consider `O=C(NCC1(N2CCOCC2)CCCCC1)c1cc(Br)ccc1Cl`, for which the “activity change, negative = active” value was inactive: 2.14%.

On to `O=c1[nH]c2ccccc2n1C1CCN(C(c2cccs2)c2nnnn2C2CCCCC2)CC1` (stereo not drawn), for which the “activity change, negative = active” value is inactive: 0.279%.

Turning to `O=Cc1ccc(N(CCCl)CCCl)cc1`, the “activity change, negative = active” value is inactive: 0.863%.

In the case of `COc1ccc(C(=O)NCC2(N3CCOCC3)CCCCC2)cc1OC`, the “activity change, negative = active” value is inactive: -3.57%.

Take `O=c1[nH]c2ccccc2n1C1CCN(C(c2ccnc3ccccc23)c2nnnn2C2CCCC2)CC1` (stereo not drawn): the “activity change, negative = active” value is inactive: -0.144%.

For the molecule `COc1cccc(C(c2nnnn2C(C)(C)C)N2CCC(n3c(=O)[nH]c4ccccc43)CC2)c1OC` (stereo not drawn), the “activity change, negative = active” value was inactive: -1.99%.

On to `CCOC(=O)N1CCC(Nc2ccc(C)cc2)CC1`, for which the “activity change, negative = active” value was inactive: -1.53%.

Take `N/C(=N\O)c1c(N)no[n+]1[O-]`: the “activity change, negative = active” value is inactive: 0.701%.

`O=C(OC1CN2CCC1CC2)C1c2ccccc2C=Cc2ccccc21` (stereo not drawn): the Potency is active: 11.2 µM.

As to `O=C(O)c1cccc(Nc2c([N+](=O)[O-])cc([N+](=O)[O-])cc2[N+](=O)[O-])c1`, the “activity change, negative = active” value is inactive: 0.949%.

As to `O=c1[nH]c2ccccc2n1C1CCN(C(c2cccs2)c2nnnn2C2CCCC2)CC1` (stereo not drawn), the “activity change, negative = active” value is inactive: -0.778%.

Consider `CCCCn1nnnc1C(c1cccc(OC)c1OC)N1CCC(n2c(=O)[nH]c3ccccc32)CC1` (stereo not drawn), for which the “activity change, negative = active” value is inactive: 1.83%.

For the molecule `O=C(NCC1(N2CCOCC2)CCCCC1)c1ccccc1[N+](=O)[O-]`, the “activity change, negative = active” value was inactive: 0.507%.

On to `O=C(NCC1(N2CCOCC2)CCCCC1)c1ccc([N+](=O)[O-])cc1`, for which the “activity change, negative = active” value was inactive: 2.34%.

Consider `CCOC(=O)C(CC)C1=NC(C)(C)Cc2ccccc21.O=[N+]([O-])c1cc([N+](=O)[O-])c(O)c([N+](=O)[O-])c1` (stereo not drawn), for which the “activity change, negative = active” value was inactive: 0.875%.

Regarding `CN(C)C1(CNC(=O)c2cccc(C#N)c2)CCCCC1`, the “activity change, negative = active” value was inactive: 1.66%.

On to `c1ccc(CN2CCC(Nc3ccccc3)CC2)cc1`, for which the “activity change, negative = active” value is inactive: -1.58%.

With `O=c1[nH]c2ccccc2n1C1CCN(C(c2ccccc2)c2nnnn2C2CCCC2)CC1` (stereo not drawn), the “activity change, negative = active” value was inactive: -4.2%.

With `CCCN1CCC(Nc2cc(OC)cc(OC)c2)CC1`, the “activity change, negative = active” value was inactive: -0.0839%.

Consider `Cc1cc(N(CCCl)CCCl)ccc1C=O`, for which the “activity change, negative = active” value is inactive: -1.11%.

With `O=C(NCC1(N2CCOCC2)CCCCC1)c1ccccc1`, the “activity change, negative = active” value was inactive: -2.92%.

On to `CC(C)(C)n1nnnc1C(c1cccc2ccccc12)N1CCC(n2c(=O)[nH]c3ccccc32)CC1` (stereo not drawn), for which the “activity change, negative = active” value was inactive: -1.19%.

As to `COc1cccc(C(c2nnnn2C2CCCCC2)N2CCC(n3c(=O)[nH]c4ccccc43)CC2)c1OC` (stereo not drawn), the “activity change, negative = active” value is inactive: 1.11%.

On to `CN(C)C1(CNC(=O)c2ccc(C(C)(C)C)cc2)CCCCC1`, for which the “activity change, negative = active” value is inactive: 1.1%.

Regarding `CCC(c1nnnn1C1CCCCC1)N1CCC(n2c(=O)[nH]c3ccccc32)CC1` (stereo not drawn), the “activity change, negative = active” value was inactive: -4.68%.

`O=c1[nH]c2ccccc2n1C1CCN(C(c2ccnc3ccccc23)c2nnnn2C2CCCCC2)CC1` (stereo not drawn): the “activity change, negative = active” value was inactive: -7.7%.

As for `Cc1ccc(C(=O)NCC2(N3CCCCC3)CCCCC2)o1`, the “activity change, negative = active” value is inactive: 0.397%.

In the case of `Cc1ccc(Nc2c([N+](=O)[O-])cc([N+](=O)[O-])cc2[N+](=O)[O-])cc1`, the “activity change, negative = active” value was inactive: 2.38%.

As to `Fc1ccccc1NC1CCN(Cc2ccccc2)CC1`, the “activity change, negative = active” value was inactive: -4.11%.

As to `Cc1ccc(NC2(C#N)CCN(Cc3ccccc3)CC2)cc1`, the “activity change, negative = active” value is inactive: 0.831%.

Take `CC(C)(C)n1nnnc1C(c1ccnc2ccccc12)N1CCC(n2c(=O)[nH]c3ccccc32)CC1` (stereo not drawn): the “activity change, negative = active” value is inactive: -7.66%.

Turning to `COc1ccc(C(c2nnnn2C2CCCCC2)N2CCC(n3c(=O)[nH]c4ccccc43)CC2)cc1` (stereo not drawn), the “activity change, negative = active” value was inactive: -0.526%.

As for `CCN1CCC(Nc2cccc(F)c2)CC1`, the “activity change, negative = active” value is inactive: 0.291%.

On to `Cc1ccccc1C(=O)NCC1(N(C)C)CCCCC1`, for which the “activity change, negative = active” value is inactive: 0.66%.

Take `CC(C)(C)c1ccc(C(=O)NCC2(N3CCOCC3)CCCCC2)cc1`: the “activity change, negative = active” value was inactive: 0.502%.

Consider `O=C(NCC1(N2CCCCC2)CCCCC1)c1ccco1`, for which the “activity change, negative = active” value was inactive: 1.8%.

For the molecule `Cn1c(=O)[nH]cc(N(CCCl)CCCl)c1=O`, the “activity change, negative = active” value was inactive: 1.3%.

With `CCOc1ncccc1C(=O)NCC1(N2CCOCC2)CCCCC1`, the “activity change, negative = active” value was inactive: -22%.

`CN1CCC(Nc2ccc(F)c(Cl)c2)CC1`: the “activity change, negative = active” value was inactive: 0.801%.

In the case of `O=C(O)C1(Nc2ccccc2)CCN(Cc2ccccc2)CC1`, the “activity change, negative = active” value was inactive: -2.17%.

For `ClCCN(CCCl)c1ccc(C=C2C=CC=C2)cc1`, the “activity change, negative = active” value is inactive: 1.37%.

Consider `NN(c1ccccc1)C1CCN(CCc2ccccc2)CC1`, for which the “activity change, negative = active” value is inactive: 1.05%.

In the case of `ClCCN(CCCl)c1ccccc1`, the “activity change, negative = active” value was inactive: -1.35%.

`CCCOc1ccc(C(=O)NCC2(N(C)C)CCCCC2)cc1`: the “activity change, negative = active” value was inactive: -0.449%.

As for `O=c1[nH]c2ccccc2n1C1CCN(C(c2cc3ccccc3o2)c2nnnn2C2CCCC2)CC1` (stereo not drawn), the “activity change, negative = active” value is inactive: 0.104%.

On to `COc1cc(C(=O)NCC2(N3CCOCC3)CCCCC2)cc(OC)c1OC`, for which the “activity change, negative = active” value is inactive: -0.395%.

Turning to `COc1cccc(C(c2nnnn2C2CCCC2)N2CCC(n3c(=O)[nH]c4ccccc43)CC2)c1OC` (stereo not drawn), the “activity change, negative = active” value is inactive: -0.141%.

Take `CCC(CO)(C(=O)OC1CN2CCC1CC2)c1ccccc1` (stereo not drawn): the “activity change, negative = active” value was inactive: -4.44%.

Turning to `CN1CCC(Nc2ccc(Cl)cc2)CC1`, the “activity change, negative = active” value is inactive: -0.0481%.
